{"source": "paper PMC9039622", "about": "“Triglyceride-Mimetic Prodrugs of Buprenorphine Enhance Oral Bioavailability via Promotion of Lymphatic Transport” (Frontiers in Pharmacology, 2022)", "key": {"[1]": {"assay": "Bioavailability / pharmacokinetic study in conscious, carotid artery cannulated rats", "format": "in vivo, Male Sprague-Dawley rats", "description": "All animal experiments were approved by the Monash Institute of Pharmaceutical Sciences animal ethics committee and were conducted in accordance with the Australian and New Zealand Council for the Care of Animals in Research and Teaching guidelines. Male Sprague-Dawley rats (270–320 g) were maintained on a standard diet and fasted overnight with free access to water prior to experiments. In experiments where surgical anaesthesia was required (i.e., for the cannulation of the carotid artery, jugular vein, and mesenteric lymph duct), rats were anaesthetised using a combination of ketamine, xylazine and acepromazine and placed on a heated pad at 37°C as described previously ([Johnson et al., 2003]). At the end of experiments rats were euthanised via intraperitoneal, intra-arterial or intravenous (when an indwelling cannula was present) administration of 100 mg pentobarbitone.\nThe systemic exposure of BUP was examined after oral administration of BUP or BUP prodrugs in carotid artery cannulated conscious rats (for the group of animals that received BUP intravenously (IV), the jugular vein was also cannulated for IV infusion). After surgery and recovery, the rats were housed in Culex Automated Blood Sampler systems (BASi, West Lafayette, Indian, United States) with free movement as described previously ([Mannila et al., 2012]). After drug administration via bolus oral gavage or IV infusion (over 5 min), blood samples (150 µl) were taken from the carotid artery cannula 5 min prior to administration and up to 24 h post-dosing and centrifuged at 4,500 g for 5 min to separate plasma. During the blood sample collection period the rats had free access to water at all times but remained fasted for a further 8 h following drug administration. Plasma samples were stored at −20°C prior to analysis for BUP as described in the Supplementary Material. The area under the plasma concentration-time curves from zero to designated time intervals (AUC0-t) were calculated using the linear trapezoidal method. The oral bioavailability of BUP was estimated via comparison of dose normalised AUC0–6h following oral dosing of BUP or TG prodrugs with the AUC0-inf following IV infusion of BUP (AUC0-inf was calculated via the addition of Ct/k to AUC0-t, where Ct is the last observed quantifiable concentration and k is the terminal phase elimination rate constant). Truncated AUCs (AUC0–6h) were used for the oral pharmacokinetic studies due to the presence of a second peak in the BUP plasma concentration versus time profile, most likely reflecting enterohepatic recycling ([Ohtani et al., 1994]).\nTo determine BUP concentrations in plasma or lymph, 20 µl plasma or lymph samples were diluted 1:3 or 1:10 v/v with methanol respectively. The samples were then vortexed for 1 min, centrifuged at 4500 g for 5 min and 50 µl or 150 µl of supernatant analysed by HPLC-MS/MS. As the TG prodrugs were expected to undergo resynthesis with potentially multiple different available fatty acids in the enterocyte and therefore to generate a variety of glyceride derivatives of BUP for transport into the lymph, two hydrolytic methods were developed to quantify total BUP derivatives in the lymph. For analysis of the samples collected after administration of BUP-C4-TG, BUP-CE-C4-TG, BUP-TML-C4-TG and BUP-C5βMe-TG, hydrolysis of potential glyceride derivatives of BUP in lymph was achieved via addition of 100 µl 0.5 M NaOH in 1:1 (v/v) ethanol:water to 20 µl of lymph and heating at 60 °C for 90 min. […]"}, "[2]": {"settings": "limited by intestinal and hepatic first-pass metabolism; ref Taylor et al., 2013; cited from earlier work"}}, "note": "Marks after values point to notes of the source that are not given here."}
{"substance": "Buprenorphine", "values": [{"measurement": "AUC (0-inf) of BUP in plasma", "setting": "[1]; IV infusion over 5 min, 10 µg, normalized to 0.06 mg/kg BUP, Mean ± SEM", "value": "60.7 ± 5.8 ^a nM × h"}, {"measurement": "Tmax", "setting": "[1]; IV infusion, Mean ± SEM", "value": "4.8 ± 0", "unit": "min"}, {"measurement": "Cmax of BUP", "setting": "[1]; IV infusion, normalized to 0.06 mg/kg BUP, Mean ± SEM", "value": "215 ± 44 ^a nM"}, {"measurement": "BA (% of IV)", "setting": "[1]; IV reference group", "value": 100, "unit": "%"}, {"measurement": "time to peak plasma concentration", "setting": "[1]; oral bolus dose by gavage", "value": 15, "unit": "min"}, {"measurement": "oral bioavailability (BA)", "setting": "[2]", "value": "less than 10%"}]}
